Earlier results in PMC4791286, “Puquitinib mesylate, an inhibitor of phosphatidylinositol 3-kinase p110δ, for treating relapsed or refractory non-Hodgkin's lymphoma” (Oncotarget, 2015).
Counter-ions that a name gives are not always drawn.

System: advanced solid tumors
Conditions: twice-daily dosing at 25 mg, 37.5 mg after the meal, 28-day cycles; ref unpublished information, personal communication with Wei Mao on January 1, 2013; cited from earlier work

Structure (SMILES): c1cnc2ccc(Nc3nc(NC4CC4)c4nc[nH]c4n3)cc2c1 [XC-302, Puquitinib Mesylate]
- DLT greater than Grade 2: not observed
